Results from patent US20150258192A1, “COMPOSITIONS AND METHODS FOR PREVENTING OR TREATING CHRONIC LUNG ALLOGRAFT DYSFUNCTION (CLAD) AND IDIOPATHIC PULMONARY FIBROSIS (IPF)” (priority 2014, published 2015).

Chains of the proteins cited; added tags and fusions are not shown. Lines headed by an entry give the natural chain unless they say otherwise; changes in a name come on top. Residues count along the entry.
UniProt P17948, 27-1338: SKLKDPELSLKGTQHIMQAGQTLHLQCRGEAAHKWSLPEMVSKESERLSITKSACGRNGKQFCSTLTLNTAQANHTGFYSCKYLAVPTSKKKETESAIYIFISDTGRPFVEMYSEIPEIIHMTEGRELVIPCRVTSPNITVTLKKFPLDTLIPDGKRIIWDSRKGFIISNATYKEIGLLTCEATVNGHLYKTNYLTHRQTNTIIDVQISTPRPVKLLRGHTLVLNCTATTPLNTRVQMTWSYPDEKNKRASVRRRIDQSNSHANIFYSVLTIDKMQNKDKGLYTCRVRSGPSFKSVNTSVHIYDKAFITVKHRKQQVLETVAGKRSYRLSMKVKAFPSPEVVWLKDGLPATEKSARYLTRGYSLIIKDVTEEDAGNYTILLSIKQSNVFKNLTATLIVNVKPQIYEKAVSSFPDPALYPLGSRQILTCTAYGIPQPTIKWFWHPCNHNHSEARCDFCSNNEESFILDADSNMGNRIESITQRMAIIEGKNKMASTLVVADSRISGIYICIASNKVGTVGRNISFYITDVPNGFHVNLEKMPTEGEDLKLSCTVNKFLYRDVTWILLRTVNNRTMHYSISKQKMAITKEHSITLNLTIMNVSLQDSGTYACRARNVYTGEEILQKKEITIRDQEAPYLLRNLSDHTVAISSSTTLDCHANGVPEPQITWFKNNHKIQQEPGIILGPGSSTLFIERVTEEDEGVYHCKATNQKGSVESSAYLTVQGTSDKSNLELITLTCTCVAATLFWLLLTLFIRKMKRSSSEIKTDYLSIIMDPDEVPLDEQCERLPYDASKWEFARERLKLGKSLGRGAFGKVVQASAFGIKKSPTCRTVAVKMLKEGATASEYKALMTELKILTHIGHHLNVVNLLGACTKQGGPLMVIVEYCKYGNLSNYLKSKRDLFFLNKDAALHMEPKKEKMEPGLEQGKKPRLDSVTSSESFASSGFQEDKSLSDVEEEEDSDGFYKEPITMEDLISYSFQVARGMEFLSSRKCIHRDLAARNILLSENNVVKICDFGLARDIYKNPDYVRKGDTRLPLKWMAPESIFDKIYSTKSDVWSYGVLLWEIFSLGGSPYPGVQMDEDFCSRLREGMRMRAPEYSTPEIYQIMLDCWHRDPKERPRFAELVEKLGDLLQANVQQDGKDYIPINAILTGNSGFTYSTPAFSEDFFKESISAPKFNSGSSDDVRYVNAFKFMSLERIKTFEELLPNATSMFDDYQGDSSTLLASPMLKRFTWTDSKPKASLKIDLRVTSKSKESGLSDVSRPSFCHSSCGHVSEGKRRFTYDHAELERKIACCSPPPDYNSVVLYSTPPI
UniProt Q06418, 41-890: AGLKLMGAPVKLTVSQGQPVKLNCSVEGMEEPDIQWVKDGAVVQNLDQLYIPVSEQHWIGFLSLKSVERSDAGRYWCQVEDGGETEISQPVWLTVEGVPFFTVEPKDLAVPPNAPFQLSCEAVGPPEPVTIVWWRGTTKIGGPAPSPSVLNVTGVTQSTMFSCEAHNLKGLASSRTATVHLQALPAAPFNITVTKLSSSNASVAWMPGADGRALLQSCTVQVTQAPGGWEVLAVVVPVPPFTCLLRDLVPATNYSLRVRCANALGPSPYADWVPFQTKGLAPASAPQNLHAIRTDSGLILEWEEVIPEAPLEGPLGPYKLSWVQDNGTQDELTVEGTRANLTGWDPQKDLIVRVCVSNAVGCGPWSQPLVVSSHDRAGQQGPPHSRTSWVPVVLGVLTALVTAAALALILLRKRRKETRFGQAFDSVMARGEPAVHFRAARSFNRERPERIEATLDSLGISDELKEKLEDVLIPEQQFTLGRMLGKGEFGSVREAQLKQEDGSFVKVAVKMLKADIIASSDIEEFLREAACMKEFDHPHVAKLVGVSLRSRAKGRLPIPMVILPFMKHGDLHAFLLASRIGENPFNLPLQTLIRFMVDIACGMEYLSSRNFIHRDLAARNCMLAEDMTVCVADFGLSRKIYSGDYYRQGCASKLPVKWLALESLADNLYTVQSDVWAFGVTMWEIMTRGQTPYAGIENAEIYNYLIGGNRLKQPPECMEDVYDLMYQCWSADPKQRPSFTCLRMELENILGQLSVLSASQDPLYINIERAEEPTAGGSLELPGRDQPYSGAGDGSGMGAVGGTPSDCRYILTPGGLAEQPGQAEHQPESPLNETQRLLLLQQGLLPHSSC
UniProt P51955: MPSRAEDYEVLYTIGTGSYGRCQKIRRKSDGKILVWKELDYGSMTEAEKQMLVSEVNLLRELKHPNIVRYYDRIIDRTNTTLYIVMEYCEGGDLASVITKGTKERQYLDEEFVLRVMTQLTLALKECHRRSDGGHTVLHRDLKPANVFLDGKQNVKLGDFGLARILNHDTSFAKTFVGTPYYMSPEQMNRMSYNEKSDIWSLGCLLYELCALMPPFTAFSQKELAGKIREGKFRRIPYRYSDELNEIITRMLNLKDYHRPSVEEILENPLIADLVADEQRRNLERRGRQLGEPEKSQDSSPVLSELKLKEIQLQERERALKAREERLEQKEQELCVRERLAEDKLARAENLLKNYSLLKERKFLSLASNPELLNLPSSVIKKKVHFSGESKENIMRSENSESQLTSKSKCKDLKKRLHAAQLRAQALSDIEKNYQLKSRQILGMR
UniProt P52564: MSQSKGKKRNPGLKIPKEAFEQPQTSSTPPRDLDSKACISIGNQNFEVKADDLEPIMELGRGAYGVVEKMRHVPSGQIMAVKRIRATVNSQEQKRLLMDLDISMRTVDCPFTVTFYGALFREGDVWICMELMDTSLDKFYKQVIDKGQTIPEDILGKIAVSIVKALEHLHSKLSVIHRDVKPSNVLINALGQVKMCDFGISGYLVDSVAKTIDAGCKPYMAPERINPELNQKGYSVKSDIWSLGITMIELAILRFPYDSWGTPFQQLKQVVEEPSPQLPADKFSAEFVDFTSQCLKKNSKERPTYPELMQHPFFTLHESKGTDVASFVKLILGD
UniProt Q9UHD2: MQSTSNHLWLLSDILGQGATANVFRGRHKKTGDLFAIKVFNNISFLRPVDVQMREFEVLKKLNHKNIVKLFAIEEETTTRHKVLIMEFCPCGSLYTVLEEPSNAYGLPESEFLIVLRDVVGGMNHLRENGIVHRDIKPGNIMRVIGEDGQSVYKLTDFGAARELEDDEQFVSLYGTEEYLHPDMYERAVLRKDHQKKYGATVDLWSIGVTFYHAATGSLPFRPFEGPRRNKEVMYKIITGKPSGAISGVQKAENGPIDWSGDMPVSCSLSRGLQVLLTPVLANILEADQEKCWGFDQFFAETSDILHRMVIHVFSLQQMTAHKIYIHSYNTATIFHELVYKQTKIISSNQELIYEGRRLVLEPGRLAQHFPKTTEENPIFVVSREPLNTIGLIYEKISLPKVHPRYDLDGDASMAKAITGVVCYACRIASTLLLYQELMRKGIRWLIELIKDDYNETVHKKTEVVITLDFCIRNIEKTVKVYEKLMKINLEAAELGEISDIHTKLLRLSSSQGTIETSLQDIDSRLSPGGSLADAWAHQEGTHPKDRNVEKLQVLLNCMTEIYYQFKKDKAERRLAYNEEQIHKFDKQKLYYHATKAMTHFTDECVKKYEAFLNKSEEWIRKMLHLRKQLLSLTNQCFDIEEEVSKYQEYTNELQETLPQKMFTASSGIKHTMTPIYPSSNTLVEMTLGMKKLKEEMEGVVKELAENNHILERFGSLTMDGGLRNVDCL
UniProt P49841: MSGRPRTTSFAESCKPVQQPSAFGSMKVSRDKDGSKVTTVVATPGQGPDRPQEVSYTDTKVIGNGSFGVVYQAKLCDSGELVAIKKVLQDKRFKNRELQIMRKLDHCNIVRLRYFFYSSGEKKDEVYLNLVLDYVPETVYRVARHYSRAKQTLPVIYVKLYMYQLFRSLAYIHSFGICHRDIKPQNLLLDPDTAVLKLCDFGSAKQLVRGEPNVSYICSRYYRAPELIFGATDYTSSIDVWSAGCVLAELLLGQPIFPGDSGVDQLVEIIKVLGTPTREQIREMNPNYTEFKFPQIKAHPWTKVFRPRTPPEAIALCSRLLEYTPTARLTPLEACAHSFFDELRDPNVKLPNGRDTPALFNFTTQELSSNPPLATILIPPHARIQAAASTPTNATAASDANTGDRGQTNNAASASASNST
UniProt P53355: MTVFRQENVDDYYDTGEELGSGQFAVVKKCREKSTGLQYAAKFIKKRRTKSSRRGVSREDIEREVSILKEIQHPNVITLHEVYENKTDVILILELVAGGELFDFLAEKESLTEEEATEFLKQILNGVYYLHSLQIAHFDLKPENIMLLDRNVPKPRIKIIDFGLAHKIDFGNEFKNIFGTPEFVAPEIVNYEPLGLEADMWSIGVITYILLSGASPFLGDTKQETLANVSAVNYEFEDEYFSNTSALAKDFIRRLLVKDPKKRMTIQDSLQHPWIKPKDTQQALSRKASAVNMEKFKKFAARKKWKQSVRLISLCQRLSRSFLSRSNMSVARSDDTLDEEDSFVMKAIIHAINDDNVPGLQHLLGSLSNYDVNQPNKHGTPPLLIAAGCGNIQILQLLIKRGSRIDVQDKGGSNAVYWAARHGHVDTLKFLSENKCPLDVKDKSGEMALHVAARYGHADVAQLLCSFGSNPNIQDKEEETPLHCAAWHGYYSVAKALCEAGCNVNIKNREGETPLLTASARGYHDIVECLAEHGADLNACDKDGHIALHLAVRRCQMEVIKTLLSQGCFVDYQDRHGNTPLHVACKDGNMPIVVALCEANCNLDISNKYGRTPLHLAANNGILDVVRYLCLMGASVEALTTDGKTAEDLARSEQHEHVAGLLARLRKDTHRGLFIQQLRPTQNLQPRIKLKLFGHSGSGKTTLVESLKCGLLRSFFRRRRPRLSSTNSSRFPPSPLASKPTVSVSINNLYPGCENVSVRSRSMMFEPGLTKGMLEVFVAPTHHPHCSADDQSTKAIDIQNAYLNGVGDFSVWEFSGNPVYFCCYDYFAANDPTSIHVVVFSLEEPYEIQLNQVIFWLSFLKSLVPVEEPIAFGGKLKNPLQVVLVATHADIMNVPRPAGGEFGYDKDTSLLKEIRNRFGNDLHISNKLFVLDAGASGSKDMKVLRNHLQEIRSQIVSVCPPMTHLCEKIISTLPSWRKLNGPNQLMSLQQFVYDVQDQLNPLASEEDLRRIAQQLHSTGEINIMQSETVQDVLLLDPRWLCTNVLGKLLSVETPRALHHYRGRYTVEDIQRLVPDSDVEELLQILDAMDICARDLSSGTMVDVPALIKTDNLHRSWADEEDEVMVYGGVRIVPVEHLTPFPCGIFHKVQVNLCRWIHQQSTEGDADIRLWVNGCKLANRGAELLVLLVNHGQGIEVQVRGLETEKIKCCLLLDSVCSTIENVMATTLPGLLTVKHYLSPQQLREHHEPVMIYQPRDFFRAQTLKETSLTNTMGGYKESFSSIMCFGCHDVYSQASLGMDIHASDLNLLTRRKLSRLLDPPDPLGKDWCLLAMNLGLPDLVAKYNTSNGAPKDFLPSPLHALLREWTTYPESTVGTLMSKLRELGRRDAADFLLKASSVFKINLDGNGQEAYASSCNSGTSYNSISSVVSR

Assays:
Test in all cases: Kinase Profiling Assay
Assay type in all cases: biochemical
Conditions in all cases: peptide 100 μM
IRAK1(h) = target: T1, IRAK1(h) (Homo sapiens, UniProt P51617)
T1 construct: purchased Millipore
Procedure, shortened: (§1)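 Specificity of MK2 inhibitory peptides is assessed against a panel of 266 human kinases. Kinase transfers a radiolabeled phosphate from ATP onto a positively charged substrate, which is trapped on a negatively charged filter and quantified by scintillation counting against full-activity control; duplicate determinations.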

Flt1(h) = Flt1(h) (Homo sapiens, UniProt P17948)
Procedure, shortened: as §1

Rse(h) = Rse(h) (Homo sapiens, UniProt Q06418)
Procedure, shortened: as §1

NEK2(h) = target: T2, NEK2(h) (Homo sapiens, UniProt P51955)
T2 construct: purchased Millipore
Procedure, shortened: as §1

PDGFRβ(h) = PDGFRβ(h) (Homo sapiens, UniProt P09619)
Procedure, shortened: as §1

Pyk2(h) = Pyk2(h) (Homo sapiens, UniProt Q14289)
Procedure, shortened: as §1

MKK6(h) = target: T3, MKK6(h) (Homo sapiens, UniProt P52564)
T3 construct: purchased Millipore
Procedure, shortened: as §1

TBK1(h) = target: T4, TBK1(h) (Homo sapiens, UniProt Q9UHD2)
T4 construct: purchased Millipore
Procedure, shortened: as §1

PKCβII(h) = PKCβII(h) (Homo sapiens, UniProt P05771)
Procedure, shortened: as §1

cKit(D816V)(h) = cKit(D816V)(h) (Homo sapiens, UniProt P10721, D816V)
Procedure, shortened: as §1

GSK3β(h) = target: T5, GSK3β(h) (Homo sapiens, UniProt P49841)
T5 construct: purchased Millipore
Procedure, shortened: as §1

Met(Y1248D)(h) = target: T6, Met(Y1248D)(h) (Homo sapiens, UniProt P08581, Y1230D)
T6 construct: purchased Millipore
Procedure, shortened: as §1

IKKα(h) = target: T7, IKKα(h) (Homo sapiens, UniProt O15111)
T7 construct: purchased Millipore
T7 sequence (O15111 1-745): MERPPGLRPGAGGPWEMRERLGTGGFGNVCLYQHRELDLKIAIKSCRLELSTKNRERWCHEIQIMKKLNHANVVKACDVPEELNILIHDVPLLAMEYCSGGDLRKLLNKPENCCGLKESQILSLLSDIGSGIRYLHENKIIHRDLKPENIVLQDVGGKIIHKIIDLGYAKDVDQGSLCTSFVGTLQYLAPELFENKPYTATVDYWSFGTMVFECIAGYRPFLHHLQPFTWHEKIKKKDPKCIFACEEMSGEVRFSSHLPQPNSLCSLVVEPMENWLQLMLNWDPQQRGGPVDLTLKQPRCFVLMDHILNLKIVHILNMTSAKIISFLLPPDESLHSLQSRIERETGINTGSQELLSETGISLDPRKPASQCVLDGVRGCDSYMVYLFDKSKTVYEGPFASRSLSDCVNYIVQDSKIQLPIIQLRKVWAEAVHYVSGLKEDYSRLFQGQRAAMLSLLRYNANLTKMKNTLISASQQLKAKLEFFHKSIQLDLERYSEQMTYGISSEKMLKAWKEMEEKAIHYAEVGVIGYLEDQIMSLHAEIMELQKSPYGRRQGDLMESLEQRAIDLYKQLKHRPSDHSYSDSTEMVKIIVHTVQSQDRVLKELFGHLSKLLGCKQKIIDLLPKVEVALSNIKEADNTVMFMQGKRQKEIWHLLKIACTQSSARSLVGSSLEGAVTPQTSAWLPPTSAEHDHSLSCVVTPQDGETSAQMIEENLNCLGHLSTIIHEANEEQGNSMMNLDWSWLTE
Procedure, shortened: as §1

TAO3(h) = target: T8, TAO3(h) (Homo sapiens, UniProt Q9H2K8)
T8 construct: purchased Millipore
T8 sequence (Q9H2K8 1-898): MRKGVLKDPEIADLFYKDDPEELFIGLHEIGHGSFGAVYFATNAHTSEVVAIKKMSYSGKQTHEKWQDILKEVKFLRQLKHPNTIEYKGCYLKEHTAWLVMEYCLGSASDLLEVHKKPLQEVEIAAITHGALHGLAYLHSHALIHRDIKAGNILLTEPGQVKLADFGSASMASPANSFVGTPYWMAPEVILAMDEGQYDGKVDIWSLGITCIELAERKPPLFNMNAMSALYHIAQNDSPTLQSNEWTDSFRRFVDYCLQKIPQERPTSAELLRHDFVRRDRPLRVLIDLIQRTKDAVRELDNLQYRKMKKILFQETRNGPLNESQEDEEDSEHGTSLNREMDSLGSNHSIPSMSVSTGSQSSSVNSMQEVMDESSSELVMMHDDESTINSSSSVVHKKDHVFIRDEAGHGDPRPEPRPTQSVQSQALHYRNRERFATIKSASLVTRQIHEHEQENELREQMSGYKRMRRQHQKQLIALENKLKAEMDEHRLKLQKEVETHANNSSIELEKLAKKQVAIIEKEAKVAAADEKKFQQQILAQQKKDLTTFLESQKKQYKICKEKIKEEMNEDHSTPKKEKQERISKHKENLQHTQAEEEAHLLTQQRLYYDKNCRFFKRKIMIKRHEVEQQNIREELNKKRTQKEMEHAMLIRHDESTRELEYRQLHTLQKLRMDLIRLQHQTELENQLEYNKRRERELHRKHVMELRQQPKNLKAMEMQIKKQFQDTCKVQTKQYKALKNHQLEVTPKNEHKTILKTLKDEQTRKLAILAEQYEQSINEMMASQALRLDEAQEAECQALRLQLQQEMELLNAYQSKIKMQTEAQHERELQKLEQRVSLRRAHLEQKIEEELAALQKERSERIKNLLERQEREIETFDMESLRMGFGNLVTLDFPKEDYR
Procedure, shortened: as §1

DAPK1(h) = DAPK1(h) (Homo sapiens, UniProt P53355)
Procedure, shortened: as §1

Flt3(D835Y)(h) = Flt3(D835Y)(h) (Homo sapiens, UniProt P36888, D835Y)
Procedure, shortened: as §1

CC(C)C[C@H](NC(=O)[C@H](C)NC(=O)[C@H](CCCCN)NC(=O)[C@H](C)NC(=O)[C@H](CCCNC(=N)N)NC(=O)[C@H](C)NC(=O)[C@H](CCC(N)=O)NC(=O)[C@H](CCCNC(=N)N)NC(=O)[C@H](C)NC(=O)[C@H](C)NC(=O)[C@H](C)NC(=O)[C@H](CCCNC(=N)N)NC(=O)[C@H](C)NC(=O)[C@@H](N)Cc1ccc(O)cc1)C(=O)N[C@@H](C)C(=O)N[C@@H](CCCNC(=N)N)C(=O)N[C@@H](CCC(N)=O)C(=O)N[C@@H](CC(C)C)C(=O)NCC(=O)N[C@H](C(=O)N[C@@H](C)C(=O)N[C@@H](C)C(=O)O)C(C)C [MMI-0100]
% activity (IRAK1(h)): 97%
% activity (Flt1(h)): 109%
% activity (Rse(h)): 109%
% activity (NEK2(h)): 102%
% activity (PDGFRβ(h)): 116%
% activity (Pyk2(h)): 113%
% activity (MKK6(h)): 74%
% activity (TBK1(h)): 106%
% activity (PKCβII(h)): 102%
% activity (cKit(D816V)(h)): 117%
% activity (GSK3β(h)): 113%

FAKLAARLYRKALARQLGVAA [MMI-0300]
% activity (Met(Y1248D)(h)): 102%

YARAAARQARAKALNRQLGVA (Mammal) [MMI-0200]
% activity (IKKα(h)): 104%
% activity (TAO3(h)): 102%
% activity (DAPK1(h)): 113%
% activity (Flt3(D835Y)(h)): 115%
